Data taken from PMC9913288 (2023).

B1: USP45-Flag [not stated] / MYC-HA [not stated] (parent complex)
chain 1: MRVKDPTKALPEKAKRSKRPTVPHDEDSSDDIAVGLTCQHVSHAISVNHVKRAIAENLWSVCSECLKERRFYDGQLVLTSDIWLCLKCGFQGCGKNSESQHSLKHFKSSRTEPHCIIINLSTWIIWCYECDEKLSTHCNKKVLAQIVDFLQKHASKTQTSAFSRIMKLCEEKCETDEIQKGGKCRNLSVRGITNLGNTCFFNAVMQNLAQTYTLTDLMNEIKESSTKLKIFPSSDSQLDPLVVELSRPGPLTSALFLFLHSMKETEKGPLSPKVLFNQLCQKAPRFKDFQQQDSQELLHYLLDAVRTEETKRIQASILKAFNNPTTKTADDETRKKVKAYGKEGVKMNFIDRIFIGELTSTVMCEECANISTVKDPFIDISLPIIEERVSKPLLWGRMNKYRSLRETDHDRYSGNVTIENIHQPRAAKKHSSSKDKSQLIHDRKCIRKLSSGETVTYQKNENLEMNGDSLMFASLMNSESRLNESPTDDSEKEASHSESNVDADSEPSESESASKQTGLFRSSSGSGVQPDGPLYPLSAGKLLYTKETDSGDKEMAEAISELRLSSTVTGDQDFDRENQPLNISNNLCFLEGKHLRSYSPQNAFQTLSQSYITTSKECSIQSCLYQFTSMELLMGNNKLLCENCTKNKQKYQEETSFAEKKVEGVYTNARKQLLISAVPAVLILHLKRFHQAGLSLRKVNRHVDFPLMLDLAPFCSATCKNASVGDKVLYGLYGIVEHSGSMREGHYTAYVKVRTPSRKLSEHNTKKKNVPGLKAADNESAGQWVHVSDTYLQVVPESRALSAQAYLLFYERVL
chain 2: MDFFRVVENQQPPATMPLNVSFTNRNYDLDYDSVQPYFYCDEEENFYQQQQQSELQPPAPSEDIWKKFELLPTPPLSPSRRSGLCSPSYVAVTPFSLRGDNDGGGGSFSTADQLEMVTELLGGDMVNQSFICDPDDETFIKNIIIQDCMWSGFSAAAKLVSEKLASYQAARKDSGSPNPARGHSVCSTSSLYLQDLSAAASECIDPSVVFPYPLNDSSSPKSCASQDSSAFSPSSDSLLSSTESSPQGSPEPLVLHEETPPTTSSDSEEEQEDEEEIDVVSVEKRQAPGKRSESGSPSAGGHSKPPHSPLVLKRCHVSTHQHNYAAPPSTRKDYPAAKRVKLDSVRVLRQISNNRKCTSPRSSDTEENVKRRTHNVLERQRRNELKRSFFALRDQIPELENNEKAPKVVILKKATAYILSVQAEEQKLISEEDLLRKRREQLKHKLEQLRNSCA

Variants of: B1
Assay: co-IP (IP: anti-Flag, IB: anti-HA), band intensity printed under the blot; HEK293T cells transfected with USP45-Flag (WT or C199A) and MYC-HA; parent: 100
chain 1 C199A showed a percent of parent of 79.
